Data taken from doi:10.1101/208439v1 (biorxiv, 2017).
Positions count from the first letter of the chain named.

Experiments:
NSD2 [1] = target: T1, NSD2 (Homo sapiens, UniProt O96028, T1150A); test: HotSpot [3H]SAM filter-binding methyltransferase assay; format: biochemical
T1 construct: full length (residues 2-1365), N-terminal His tag, insect cell/baculovirus
T1 sequence (O96028 2-1365 T1150A): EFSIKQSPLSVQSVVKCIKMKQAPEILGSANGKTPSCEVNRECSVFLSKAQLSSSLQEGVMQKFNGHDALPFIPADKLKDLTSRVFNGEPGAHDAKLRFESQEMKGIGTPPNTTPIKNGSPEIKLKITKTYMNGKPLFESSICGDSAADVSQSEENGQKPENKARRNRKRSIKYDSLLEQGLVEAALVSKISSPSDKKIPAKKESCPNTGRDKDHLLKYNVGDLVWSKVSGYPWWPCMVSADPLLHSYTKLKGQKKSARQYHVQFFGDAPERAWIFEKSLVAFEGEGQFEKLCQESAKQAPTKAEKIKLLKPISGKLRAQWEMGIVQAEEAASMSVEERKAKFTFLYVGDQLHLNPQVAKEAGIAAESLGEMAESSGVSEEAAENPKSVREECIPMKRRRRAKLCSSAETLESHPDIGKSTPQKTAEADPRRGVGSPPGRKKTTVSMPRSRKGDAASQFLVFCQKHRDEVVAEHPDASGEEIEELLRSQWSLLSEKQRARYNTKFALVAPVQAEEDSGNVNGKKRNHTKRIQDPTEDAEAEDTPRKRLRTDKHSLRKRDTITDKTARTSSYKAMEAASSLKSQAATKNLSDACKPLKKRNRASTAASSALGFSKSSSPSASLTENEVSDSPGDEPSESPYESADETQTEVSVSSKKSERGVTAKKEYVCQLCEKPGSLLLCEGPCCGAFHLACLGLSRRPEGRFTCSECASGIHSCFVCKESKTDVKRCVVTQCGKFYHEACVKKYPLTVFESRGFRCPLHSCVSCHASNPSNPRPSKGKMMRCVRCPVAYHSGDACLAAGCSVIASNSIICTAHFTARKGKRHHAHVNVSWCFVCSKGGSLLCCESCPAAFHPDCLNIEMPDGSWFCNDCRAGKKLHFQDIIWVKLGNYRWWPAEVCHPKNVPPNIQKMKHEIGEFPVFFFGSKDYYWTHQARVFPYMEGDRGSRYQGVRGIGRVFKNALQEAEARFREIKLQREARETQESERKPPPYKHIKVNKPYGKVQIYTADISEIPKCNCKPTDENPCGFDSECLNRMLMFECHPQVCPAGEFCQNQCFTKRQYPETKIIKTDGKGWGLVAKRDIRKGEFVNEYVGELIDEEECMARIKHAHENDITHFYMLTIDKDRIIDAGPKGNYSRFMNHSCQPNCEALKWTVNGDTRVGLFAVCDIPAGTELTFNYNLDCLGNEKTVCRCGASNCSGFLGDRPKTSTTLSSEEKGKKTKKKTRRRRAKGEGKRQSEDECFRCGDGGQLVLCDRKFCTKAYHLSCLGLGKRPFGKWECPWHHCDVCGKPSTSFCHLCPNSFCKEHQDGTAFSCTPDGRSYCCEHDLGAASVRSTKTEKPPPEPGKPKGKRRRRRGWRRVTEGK

NSD2 [2] = target: T2, NSD2 (Homo sapiens, UniProt O96028); test: as above; format: biochemical
T2 construct: full length (residues 2-1365), N-terminal His tag, insect cell/baculovirus
T2 sequence (O96028 2-1365): T1 sequence (O96028 2-1365 T1150A) with A1149T

NSD2 SET domain = target: T3, NSD2 SET domain (Homo sapiens, UniProt O96028); test: SPR Biacore 8K, single-cycle kinetics, […] model; format: binding
T3 construct: SET domain, residues 934-1241, N-terminal His tag, E. coli
T3 sequence (O96028 934-1241): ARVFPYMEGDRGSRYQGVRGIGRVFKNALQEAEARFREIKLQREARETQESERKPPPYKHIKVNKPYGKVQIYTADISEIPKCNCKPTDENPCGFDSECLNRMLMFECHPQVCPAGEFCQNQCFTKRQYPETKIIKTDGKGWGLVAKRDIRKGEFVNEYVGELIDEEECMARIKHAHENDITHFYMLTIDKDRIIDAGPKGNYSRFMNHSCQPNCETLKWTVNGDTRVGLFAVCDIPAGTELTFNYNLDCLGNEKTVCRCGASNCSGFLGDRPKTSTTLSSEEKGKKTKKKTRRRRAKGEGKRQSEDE

NSD2 [3] = target: T4, NSD2 (Homo sapiens, UniProt O96028, E1099K); test: HotSpot [3H]SAM filter-binding methyltransferase assay; format: biochemical
T4 construct: full length (residues 2-1365), N-terminal His tag, insect cell/baculovirus
T4 sequence (O96028 2-1365 E1099K): T1 sequence (O96028 2-1365 T1150A) with E1098K, A1149T

IC50 (NSD2 [1]): 1.5 µM | IC50 (NSD2 [2]): 8.2 µM | Kd (NSD2 SET domain): 5.1 µM | IC50 (NSD2 [3]): 0.94 µM
Compound: Nc1ncnc2c1ncn2[C@@H]1O[C@H](CSCC[C@H](N)C(=O)O)[C@@H](O)[C@H]1O [SAH]
